Binding of CDR-mutated scFvs to a peptide of the spike HR2 region

Source: Engelhart et al. 2022 (doi:10.1038/s41597-022-01779-4), MIT Lincoln Laboratory and A-Alpha Bio; data file from the FLAb repository.

Antigen: PDVDLGDISGINAS, a 14-residue peptide of the SARS-CoV-2 spike HR2 region.

The variants keep the light chain, the linker and the frameworks of Ab-14 (scFv order VH, a 15-residue (Gly4Ser)3 linker, VL).
VH: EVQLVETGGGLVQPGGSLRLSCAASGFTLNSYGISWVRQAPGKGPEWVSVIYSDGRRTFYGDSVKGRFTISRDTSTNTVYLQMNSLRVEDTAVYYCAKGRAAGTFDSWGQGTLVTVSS
VL: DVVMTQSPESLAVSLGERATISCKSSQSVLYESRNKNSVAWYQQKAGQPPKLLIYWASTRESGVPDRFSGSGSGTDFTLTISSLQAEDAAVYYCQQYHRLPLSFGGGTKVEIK

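The parent was found by panning a naive human phage display library on the peptide. Library AAYL49 holds single substitutions and randomly drawn double and triple substitutions in the CDRs. AlphaSeq pools MATa yeast showing the antibodies with MATalpha yeast showing the peptide. The frequency of each diploid, read from paired DNA barcodes, reflects how well the two displayed proteins bind. The ratio of observed to expected reads was calibrated, replicate by replicate, on BCL2-family standards whose Kd was known from biolayer interferometry. Mating was done three times.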

Substitutions are numbered in sequence along the VH above, starting at 1 (not Kabat).
Affinities are written as log10 Kd with Kd in nM; a lower number is a better binder.
The mean shown is taken over the replicates in which the pair was detected.
An entry "nd" has no value in the source: the pair was not observed among the diploids in any replicate. This suggests poor binding but is not conclusive.
For reference, the parent read 0.65 as the reference entry and 4.11 (one replicate of three) as a member of this library.

changes	mean log10 Kd (nM)	replicates with signal	empty controls
S31F I34Q G55N	1.95	1/3	0/9
I34S V50S R56A	nd	0/3	2/9
N30W I34R F105A	5.56	1/3	6/9
G26H G55Y S107Y	nd	0/3	2/9
Y32F V64P F105D	4.96	1/3	4/9
G26E F59H R100E	1.58	3/3	1/9
L29G D54P A102T	nd	0/3	0/9
D54G Y60W S63A	4.53	2/3	3/9
G33S R100G	4.96	2/3	0/9
S53V K65C A102N	nd	0/3	0/9
G26N G55L R57A	nd	0/3	2/9
D54H G61N D62T	3.04	1/3	0/9
S53H A101H	1.77	3/3	2/9
F59I K65T G103S	5.00	1/3	0/9
Y52M K65D A101I	4.42	2/3	3/9
D54T K65V G99A	nd	0/3	0/9
F27T L29E R56Q	4.35	2/3	4/9
Y60D D62W G103I	nd	0/3	0/9
T28G G33Y G55M	3.98	2/3	3/9
G26L G33W S107H	nd	0/3	2/9
G26L G33Y D54L	4.28	1/3	1/9
F27E G61W K65A	4.86	2/3	5/9
L29W S53I R100I	4.83	3/3	4/9
G33I S35Q R56M	nd	0/3	1/9
S31G D54C R57M	5.26	1/3	0/9
F27Y T28Y D62M	3.82	2/3	2/9
D62E A101T S107L	2.26	3/3	2/9
S53C D54R G61S	nd	0/3	2/9
L29P G55D R56S	4.85	1/3	0/9
Y32A G61N	nd	0/3	1/9
K65C F105N	nd	0/3	0/9
S31Q V64R A101Q	nd	0/3	0/9
R56P D62A G99P	4.07	1/3	1/9
Y52E D54T R56M	nd	0/3	3/9
S31N Y52F G61L	3.96	2/3	1/9
S53V G61F V64I	nd	0/3	3/9
F27K S31Q F59C	2.50	3/3	5/9
G26H S35E K65C	4.45	1/3	2/9
G33I S53L A101G	nd	0/3	0/9
N30E G61D D62Q	0.83	3/3	2/9
G26D R57H S107G	2.07	3/3	1/9
R57M F105Y	nd	0/3	0/9
F27N S53M V64W	nd	0/3	0/9
Y32D G55R F59A	nd	0/3	0/9
G26T G61W A102L	nd	0/3	1/9
S63N R100S T104P	nd	0/3	0/9
T28G S31V G55F	3.38	2/3	2/9
V50G S53D S107C	6.15	2/3	5/9
G26A Y52A T58L	4.68	2/3	4/9
Y32H K65F G99L	4.11	1/3	0/9
N30F G61R A101L	1.66	3/3	1/9
V50F R57M A102N	nd	0/3	0/9
G33E G61L	nd	0/3	1/9
Y32D R56H T104A	nd	0/3	1/9
S31D R57F G61Q	3.94	3/3	1/9
R56K T58K S63M	2.34	3/3	0/9
F27H A102R	3.30	1/3	1/9
D62V A102M G103L	nd	0/3	0/9
G55S V64R T104C	nd	0/3	0/9
D62P S63V V64N	4.97	1/3	0/9
S53Q R57Y R100S	nd	0/3	0/9
I34E R56G R100Q	nd	0/3	0/9
G33P V64I A102K	nd	0/3	0/9

7 of these entries, quoted again:

changes	mean log10 Kd (nM)	replicates with signal	empty controls
T28G G33Y G55M	3.98	2/3	3/9
S31D R57F G61Q	3.94	3/3	1/9
D54T K65V G99A	nd	0/3	0/9
D62V A102M G103L	nd	0/3	0/9
G26H G55Y S107Y	nd	0/3	2/9
F27N S53M V64W	nd	0/3	0/9
G26H S35E K65C	4.45	1/3	2/9

As a blank, each scFv also met three strains without target: over library AAYL49, 15% of these pairings were detected, typically at 4.06 and seldom below 2.83. The control count says in how many pairings with the empty strains this scFv gave a signal.